From US7838556B2 (priority 2006, dated 2010)

Columns and labels:
[1] = target: Adrenergic, Alpha 1, Non-selective; format: binding; conditions: read-out: Ki (M) Ref. Cpd.
[2] = target: Adrenergic, Alpha 2, Non-selective; format: binding; conditions: read-out: Ki (M) Ref. Cpd.

With `Cc1ccc(N(CC2=NCCN2)c2cccc(O)c2)cc1` [Phentolamine, reference compound] the Ki [1] was 3.62e-09 M and the Ki [2] was 9.4e-09 M.
